What was measured:
[1] = In vitro degradation assay in 0.01 M PBS buffer solution; type: physicochemical; conditions: at 240 min
Method: In order to determine the degradation of the compounds in PBS buffer solution, the compounds DSR1˜6 were dissolved in 0.01 M PBS buffer solution, and were sampled every 30 min.

[2] = test system: human colon cancer SW-620; test: Xenografted tumor of human colon cancer SW-620 in nude mice; conditions: 45 mg/kg, qw × 3w, iv
human lung cancer A549 = test: Xenografted tumor of human lung cancer A549 in nude mice; conditions: 45 mg/kg, qw × 3w, iv
human colon cancer HT-29 = test: Xenografted tumor of human colon cancer HT-29 in nude mice; conditions: 45 mg/kg, qw × 3w, iv
[3] = test system: human colon cancer HCT-116; test: Xenografted tumor of human colon cancer HCT-116 in nude mice; conditions: 45 mg/kg, qw × 3w, iv
[4] = test system: human ovarian cancer SKOV-3; test: Xenografted tumor of human ovarian cancer SKOV-3 in nude mice; conditions: 45 mg/kg, qw × 3w, iv

conjugate of Y shape PEG glutamic acid dipeptide valine (40K)-dasatinib [DSR-5]
degradation [1]: 20%

conjugate of methoxy PEG dipeptide of glutamic acid and glycine (number-average molecular weight of 20,000)-irinotecan [YNR-1]
Body weight, Beginning [2]: 19.2 g
Body weight, End [2]: 24.6 g
Body weight, Beginning (human lung cancer A549): 19.1 g
Body weight, End (human lung cancer A549): 22.0 g
Body weight, Beginning (human colon cancer HT-29): 18.7 g
Body weight, End (human colon cancer HT-29): 18.4 g
Body weight, Beginning [3]: 18.8 g
Body weight, End [3]: 16.8 g
Body weight, Beginning [4]: 20.7 g
Body weight, End [4]: 22.7 g
